What was measured:
[1] = test system: CO/N=C(\C(=O)N[C@@H]1C(=O)N2C(C(=O)[O-])=C(C[N+]3(C)CCCC3)CS[C@H]12)c1csc(N)n1; assay: (§1) Activity of Pseudomonas aeruginosa VIM-1 beta-lactamase
Summary of the method: (§2)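 GST-fused VIM-1 lacking signal peptide, purified, dialyzed in 50 mM HEPES pH 7.5 with 50 μM ZnSO4. Beta-lactam hydrolysis followed spectrophotometrically at 25°C in 50 mM HEPES pH 7.5, 50 μM ZnSO4, 20 μg/ml BSA.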

[2] = test system: C[C@@H](O)[C@H]1C(=O)N2C(C(=O)O)=C(SCCNC=N)C[C@H]12; assay: as §1; summary of the method: as §2
[3] = test system: CO/N=C(\C(=O)N[C@@H]1C(=O)N2C(C(=O)O)=C(COC(C)=O)CS[C@H]12)c1csc(N)n1; assay: (§3) Ratio of Kcat to Km for Pseudomonas aeruginosa VIM-1 beta-lactamase; summary of the method: as §2
[4] = test system: CO/N=C(\C(=O)N[C@@H]1C(=O)N2C(C(=O)[O-])=C(C[N+]3(C)CCCC3)CS[C@H]12)c1csc(N)n1; assay: as §3; summary of the method: as §2
[5] = test system: C[C@@H](O)[C@H]1C(=O)N2C(C(=O)O)=C(SCCNC=N)C[C@H]12; assay: as §3; summary of the method: as §2
[6] = test system: CO/N=C(\C(=O)N[C@@H]1C(=O)N2C(C(=O)[O-])=C(C[N+]3(C)CCCC3)CS[C@H]12)c1csc(N)n1; conditions: Pseudomonas aeruginosa
[7] = test system: C[C@@H](O)[C@H]1C(=O)N2C(C(=O)O)=C(SCCNC=N)C[C@H]12; conditions: Pseudomonas aeruginosa
[8] = test system: CO/N=C(\C(=O)N[C@@H]1C(=O)N2C(C(=O)[O-])=C(C[N+]3(C)CCCC3)CS[C@H]12)c1csc(N)n1; conditions: Pseudomonas aeruginosa; remark: listed apart in the source
[9] = test system: C[C@@H](O)[C@H]1C(=O)N2C(C(=O)O)=C(SCCNC=N)C[C@H]12; conditions: Pseudomonas aeruginosa; remark: listed apart in the source

Substance	Km [1] [µM]	kcat [1] [s⁻¹]	Km [2] [µM]	kcat [2] [s⁻¹]	kcat/Km [3] [M⁻¹ s⁻¹]	kcat/Km [4] [M⁻¹ s⁻¹]	kcat/Km [5] [M⁻¹ s⁻¹]	Km [6] [µM]	kcat [6] [s⁻¹]	Km [7] [µM]	kcat [7] [s⁻¹]	kcat/Km [8] [M⁻¹ s⁻¹]	kcat/Km [9] [M⁻¹ s⁻¹]
Beta-lactamase VIM-1 (Pseudomonas aeruginosa) (from UniProt Q9XAY4)	337	119	4	3.4	718000	3.5	8.38	–	–	–	–	–	–
Class B carbapenemase VIM-13 (Pseudomonas aeruginosa) (from UniProt Q2HY42)	–	–	–	–	–	–	–	1870	61	18.5	54	3.3	2.92

From ChEMBL document CHEMBL1275500, “Characterization of the new metallo-beta-lactamase VIM-13 and its integron-borne gene from a Pseudomonas aeruginosa clinical isolate in Spain” (Antimicrob Agents Chemother, 2008)
